Reference: US9403799B2

Chains of the proteins cited; added tags and fusions are not shown. Residues count along the entry.
UniProt P08581, 25-1390 limits assumed: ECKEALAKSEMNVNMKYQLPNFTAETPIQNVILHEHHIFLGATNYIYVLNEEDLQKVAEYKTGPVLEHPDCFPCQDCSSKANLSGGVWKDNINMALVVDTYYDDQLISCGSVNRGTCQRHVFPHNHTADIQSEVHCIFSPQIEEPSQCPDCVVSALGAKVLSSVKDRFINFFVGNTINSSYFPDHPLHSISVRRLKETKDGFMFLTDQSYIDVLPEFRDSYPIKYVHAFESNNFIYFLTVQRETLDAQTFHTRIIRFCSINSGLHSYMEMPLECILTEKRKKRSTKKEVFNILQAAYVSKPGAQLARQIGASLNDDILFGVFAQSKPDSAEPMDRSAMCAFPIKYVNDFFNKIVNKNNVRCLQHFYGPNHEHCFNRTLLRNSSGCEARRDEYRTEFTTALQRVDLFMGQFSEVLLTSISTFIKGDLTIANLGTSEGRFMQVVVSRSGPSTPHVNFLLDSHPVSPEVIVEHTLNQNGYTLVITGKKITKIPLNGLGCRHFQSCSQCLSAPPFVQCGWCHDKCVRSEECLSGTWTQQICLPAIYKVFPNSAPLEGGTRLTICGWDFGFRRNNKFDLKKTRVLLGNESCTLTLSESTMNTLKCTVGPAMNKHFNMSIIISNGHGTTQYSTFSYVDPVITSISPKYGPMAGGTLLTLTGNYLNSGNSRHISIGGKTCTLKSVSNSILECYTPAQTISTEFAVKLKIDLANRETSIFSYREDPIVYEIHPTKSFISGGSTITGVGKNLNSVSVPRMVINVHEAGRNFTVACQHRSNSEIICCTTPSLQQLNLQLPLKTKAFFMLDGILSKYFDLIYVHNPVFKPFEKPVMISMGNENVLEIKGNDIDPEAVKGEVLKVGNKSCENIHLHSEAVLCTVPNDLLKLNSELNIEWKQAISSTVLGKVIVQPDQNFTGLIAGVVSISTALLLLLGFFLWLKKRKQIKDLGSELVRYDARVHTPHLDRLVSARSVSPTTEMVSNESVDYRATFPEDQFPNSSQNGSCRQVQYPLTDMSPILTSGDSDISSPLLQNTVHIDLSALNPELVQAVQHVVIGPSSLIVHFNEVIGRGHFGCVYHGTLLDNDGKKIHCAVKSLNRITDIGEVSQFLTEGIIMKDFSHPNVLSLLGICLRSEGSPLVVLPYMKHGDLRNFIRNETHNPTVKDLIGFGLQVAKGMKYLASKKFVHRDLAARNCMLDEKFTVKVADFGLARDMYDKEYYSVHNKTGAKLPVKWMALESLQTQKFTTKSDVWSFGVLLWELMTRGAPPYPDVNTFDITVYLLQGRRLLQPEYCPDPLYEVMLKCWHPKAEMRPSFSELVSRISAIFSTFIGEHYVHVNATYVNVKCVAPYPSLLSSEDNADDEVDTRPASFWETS

Tests used:
[1] = target: T1, Met kinase (Homo sapiens (Human), UniProt P08581); experiment: Flashplate method (Met kinase), enzyme assay; format: biochemical; conditions: Met kinase inhibition
[2] = target: T1, Met kinase; experiment: Met kinase inhibition, cell assay; format: cell-based

| Compound | IC50 [1] [µM] | IC50 [2] [µM] |
| --- | --- | --- |
| Cn1cc(-c2ccc(=O)n(Cc3cccc(-c4ncc(OCCN5CCOCC5)cn4)c3)n2)cn1 [Compound A4, 6-(1-Methyl-1H-pyrazol-4-yl)-2-{3-[5-(2-morpholin-4-yl-ethoxy)pyrimidin-2-yl]benzyl}-2H-pyridazin-3-one, p-tosylate] | < 0.1 | – |
| Cn1cc(-c2ccc(=O)n(Cc3cccc(-c4ncc(OCCN5CCOCC5)cn4)c3)n2)cn1 [Compound A5, 6-(1-Methyl-1H-pyrazol-4-yl)-2-{3-[5-(2-morpholin-4-yl-ethoxy)pyrimidin-2-yl]benzyl}-2H-pyridazin-3-one, fumarate] | – | < 0.1 |

Where a name gives a salt, the structure may show the parent alone.
